Experimental data as given in US11970474B2, “Substituted benzodiazoles and use thereof in therapy” (THOMAS HELLEDAYS STIFTELSE FÖR MEDICINSK FORSKNING, priority 2018, dated 2024).

Protein sequences, listed by entry. Tags and fused reporters are not part of them.
UniProt O15527, whole entry: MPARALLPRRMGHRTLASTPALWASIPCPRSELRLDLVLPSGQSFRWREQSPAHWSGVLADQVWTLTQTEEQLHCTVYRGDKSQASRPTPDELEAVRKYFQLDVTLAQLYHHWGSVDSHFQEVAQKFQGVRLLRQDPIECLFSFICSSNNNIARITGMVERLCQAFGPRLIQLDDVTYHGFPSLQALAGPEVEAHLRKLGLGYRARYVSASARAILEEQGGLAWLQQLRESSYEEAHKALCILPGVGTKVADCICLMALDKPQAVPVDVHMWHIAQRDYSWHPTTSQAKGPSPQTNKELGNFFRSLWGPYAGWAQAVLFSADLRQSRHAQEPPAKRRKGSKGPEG

Target: OGG1 (Homo sapiens (Human), UniProt O15527)
Test: In vitro OGG1 activity assay
Assay type: biochemical
Settings: 800 pM OGG1 enzyme, 2 nM human APEX1, 10 nM 8-oxoA:C substrate
Method: Method 1: In Vitro OGG1 Activity Assay OGG1 activity is assayed by measuring the increase in fluorescence from a duplex oligonucleotide containing an OGG1 substrate and a fluorophore in close proximity that are quenched by a quencher on the complementary strand. […] OGG1 activity releases the substrate base from DNA by cleaving the N-glycosidic bond between base and deoxyribose. The resulting apurinic site is cleaved by an excessive amount APEX1 activity which cause the duplex to melt, which in turn cause the fluorophore to become unquenched. Compounds to be tested are dissolved in DMSO and nano-dispensed directly into black 384-well plates, followed by transfer of enzyme and substrate solutions. […] The fluorescent signal is recorded in a plate reader equipped with suitable filters to register fluorescein fluorescence.

Compound	IC50 [nM]
O=C(Nc1ccc(I)cc1)N1CCC(n2c(=O)[nH]c3cc(Cl)ccc32)CC1 [Example 2, 4-(5-Chloro-2-oxo-2,3-dihydro-1H-1,3-benzodiazol-1-yl)-N-(4-iodophenyl) piperidine-1-carboxamide]	1690
O=C(Nc1ccc(Cl)c(Cl)c1)N1CCC(n2c(=O)[nH]c3cc(Cl)ccc32)CC1 [Example 3, 4-(5-Chloro-2-oxo-2,3-dihydro-1H-1,3-benzodiazol-1-yl)-N-(3,4-dichlorophenyl)piperidine-1-carboxamide]	1290
